In BindingDB's records for 19027295:

Target: Neuronal acetylcholine receptor subunit alpha-3 (Homo sapiens, UniProt P32297)

Structure (SMILES): CNC(=O)OCCC(C)N(C)C (stereo unspecified)
- EC50: 170 µM
